Legend:
Carbonic anhydrase [1] = target: Carbonic anhydrase (Stylophora pistillata, UniProt C0IX24)
Carbonic anhydrase [2] = target: Carbonic anhydrase (Stylophora pistillata, UniProt B5SU02); test: Inhibition of Stylophora pistillata carbonic anhydrase by stopped-flow CO2 hydration assay

[N-]=[N+]=N
Ki (Carbonic anhydrase [1]): 4680 µM
Ki (Carbonic anhydrase [2]): 520 µM

Reference: BindingDB's records for 21208801
